The values that follow are results of earlier work, collected in US7326706B2, “Pyrazine modulators of cannabinoid receptors” (Bristol-Myers Squibb Company, priority 2003, dated 2008).

The conditions of this data set: chronic administration for two weeks.

As for `Cc1c(C(=O)NN2CCCCC2)nn(-c2ccc(Cl)cc2Cl)c1-c1ccc(I)cc1` [AM-251], the adipose tissue mass result is reported as “decreased adipose tissue mass”.
